Ab-95 light chain CDR variants: yeast mating affinities

Reference: Engelhart et al. 2022, doi:10.1038/s41597-022-01779-4. File: FLAb, binding data.

Antigen: PDVDLGDISGINAS, a 14-residue peptide of the SARS-CoV-2 spike HR2 region.

Ab-95 is the parent antibody, in scFv form: VH, then a (GGGGS)3 linker, then VL. The heavy chain is unchanged in all variants.
VH: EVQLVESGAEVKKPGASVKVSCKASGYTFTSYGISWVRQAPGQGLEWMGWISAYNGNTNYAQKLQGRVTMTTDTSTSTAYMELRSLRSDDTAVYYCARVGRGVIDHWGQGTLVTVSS
VL: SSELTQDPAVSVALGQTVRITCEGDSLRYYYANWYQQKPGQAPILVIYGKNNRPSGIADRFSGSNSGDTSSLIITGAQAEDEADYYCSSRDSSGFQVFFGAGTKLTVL

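The starting antibody came from a phage panning campaign against this peptide. In library AAYL52, one, two or three CDR residues were substituted; doubles and triples were drawn at random. In AlphaSeq, yeast of one mating type display the scFv and yeast of the other type display the target. The frequency of each diploid, read from paired DNA barcodes, reflects how well the two displayed proteins bind. A regression on co-assayed BCL2-family reference pairs converts the normalised counts of each replicate to an apparent Kd. Each pool was mated in three replicate cultures.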

Substitutions are numbered in sequence along the VL above, starting at 1 (not Kabat). Numbers give log10(Kd / nM), so 0 is 1 nM and 3 is 1 µM. Smaller is tighter. Replicates are averaged; those with no signal do not enter the mean. "nd" marks a missing value. The strain was present, yet no cells mated with the target were sequenced in that replicate, which points to weak or no binding. Empty control strains, which show no peptide, gave a signal in 28% of pairings with library AAYL52; the median was 3.91 and 95% of these signals were weaker than 2.90. No background was subtracted. Also given: how often the same scFv was detected with the empty control strains, with their mean in brackets.

| changes | log10 Kd (nM) by replicate | log10 Kd (nM), mean | signal with controls |
|---|---|---|---|
| E23N/R28D/N52D | 4.19 3.00 nd | 3.60 | 1 of 9 (2.87) |
| R28V/N51Y/D91Y | 3.31 nd 4.03 | 3.67 | 3 of 9 (3.96) |
| G49C/S93H/G94I | 3.85 nd nd | 3.85 | 3 of 9 (3.84) |
| D25Y/V97T | nd 5.05 nd | 5.05 | 3 of 9 (3.77) |
| L27W/K50E/R90D | 3.68 4.86 3.86 | 4.13 | 2 of 9 (4.10) |
| S26K/D91I/S92M | 3.61 4.83 4.16 | 4.20 | 6 of 9 (4.01) |
| D25N/S26W | 2.54 2.45 2.52 | 2.50 | 1 of 9 (3.76) |
| Y29H/S55C | 2.10 2.14 2.19 | 2.15 | 6 of 9 (4.08) |
| D25R/S88F/S92Y | 2.41 2.57 1.81 | 2.26 | 2 of 9 (3.40) |
| E23Y/N33L/K50G | 4.68 nd nd | 4.68 | 2 of 9 (2.92) |
| N51M/S89W | nd nd nd | nd | 4 of 9 (3.95) |
| N52D/S88F/Q96S | 3.78 5.41 4.06 | 4.42 | 5 of 9 (3.69) |
| Y29R/Y30T/N52T | 1.33 1.52 1.00 | 1.29 | 4 of 9 (3.85) |
| A32W/S89M/Q96P | 4.85 4.27 2.92 | 4.01 | 1 of 9 (4.17) |
| D25A/S92Q/Q96L | 3.10 3.01 2.68 | 2.93 | 2 of 9 (3.70) |
| A32S/S88A/S89F | nd nd 4.44 | 4.44 | 1 of 9 (4.27) |
| G24P/A32R/S93V | nd 3.83 3.25 | 3.54 | 1 of 9 (3.97) |
| S55W/S93D/F95H | nd 3.03 nd | 3.03 | 2 of 9 (3.73) |
| G24Y/R53D/S88N | 3.41 nd nd | 3.41 | 1 of 9 (3.43) |
| G49L/N52Q/P54S | 4.26 nd nd | 4.26 | 0 of 9 |
| K50M/S88T | 3.27 3.88 3.39 | 3.51 | 5 of 9 (4.04) |
| G24I/P54E/V97A | nd nd nd | nd | 1 of 9 (4.26) |
| S26G/A32M/K50I | 3.47 4.00 3.86 | 3.78 | 6 of 9 (4.07) |
| L27I/G49N/N51G | 3.61 nd nd | 3.61 | 2 of 9 (3.21) |
| Y29P/K50N/S89G | 2.97 3.20 2.66 | 2.94 | 1 of 9 (3.09) |
| R28N/N52K/S92T | 3.07 2.91 3.60 | 3.19 | 2 of 9 (3.46) |
| L27P/R28A/S92M | 4.99 5.52 nd | 5.25 | 3 of 9 (3.40) |
| N33T/S92H/F98P | nd nd 4.46 | 4.46 | 5 of 9 (4.10) |
| S26Q/K50C/S89E | 3.81 5.44 4.10 | 4.45 | 0 of 9 |
| Y31A/K50H/N52H | 2.51 2.54 2.32 | 2.46 | 2 of 9 (3.88) |

The 2 strongest on average among those seen in every replicate, once more:

{"changes": "Y29R/Y30T/N52T", "log10 Kd (nM) by replicate": "1.33 1.52 1.00", "log10 Kd (nM), mean": "1.29", "signal with controls": "4 of 9 (3.85)"}
{"changes": "Y29H/S55C", "log10 Kd (nM) by replicate": "2.10 2.14 2.19", "log10 Kd (nM), mean": "2.15", "signal with controls": "6 of 9 (4.08)"}